The data set can be described thus: in vivo. The conditions noted are these: mouse, ip.

The structures appear in SMILES notation.

The values that follow come from publication PMC4004761 (Journal of medicinal chemistry, 2013).

For the compound `NS(=O)(=O)NC[C@H]1COc2cc(Cl)ccc2O1` [compound 4, (2S)-(–)-N-((6-Chloro-2,3-dihydrobenzo[1,4]dioxin-2-yl)methyl)sulfamide], the TD50 stood at 355 mg/kg.
